Earlier results on one substance are cited in patent US20160331796A1, “ENRICHED AMARANTHUS BLITOIDES COMPOSITIONS AND USES THEREOF” (priority 2010, published 2016).

For the substance Vitamin D, the “daily ingestion producing acute toxicity” value (adults, acute toxicity within two weeks) is 375 µg/kg. The “daily ingestion at which toxicity has been observed” value (adults, long term daily ingestion) was 25 µg/kg. Besides, the “dosage at which toxicity has been seen” value (healthy adults) is recorded as “above 1250 μg/day”.
